Results from publication PMC3602246 (BMC Pharmacology & Toxicology, 2013).

Chains of the proteins cited; added tags and fusions are not shown.
UniProt P35372, whole entry: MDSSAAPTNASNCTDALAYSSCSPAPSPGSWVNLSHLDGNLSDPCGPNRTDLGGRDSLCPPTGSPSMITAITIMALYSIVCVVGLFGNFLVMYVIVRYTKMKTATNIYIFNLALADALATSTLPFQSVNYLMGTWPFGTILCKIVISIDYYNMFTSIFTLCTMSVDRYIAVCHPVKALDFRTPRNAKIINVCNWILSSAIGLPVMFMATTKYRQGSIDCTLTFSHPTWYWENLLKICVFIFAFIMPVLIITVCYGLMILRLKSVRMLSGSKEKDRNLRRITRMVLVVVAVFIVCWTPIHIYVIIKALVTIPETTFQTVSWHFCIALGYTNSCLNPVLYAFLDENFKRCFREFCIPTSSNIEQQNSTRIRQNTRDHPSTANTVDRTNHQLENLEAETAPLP

What was measured:
KOR = conditions: read-out: Ki, affinity binding to the KOR; cited from earlier work
DOR = conditions: read-out: Ki, affinity binding to the DOR; cited from earlier work
[1] = target: T1, human mu opioid receptor (MOR1) (Homo sapiens, UniProt P35372); assay type: cell-based
T1 construct: FLAG; expressed in transfected cells

For `Oc1ccc2c3c1O[C@H]1c4[nH]c5ccccc5c4C[C@@]4(O)[C@@H](C2)N(CC2CC2)CC[C@]314` [Naltrindole], the Ki (KOR) is listed as 66 nM.

For `COC(=O)[C@@H]1C[C@H](OC(C)=O)C(=O)[C@H]2[C@@]1(C)CC[C@H]1C(=O)O[C@H](c3ccoc3)C[C@]21C` [Salvinorin A], the Ki (DOR) is given as over 1000 nM.

With Dynorphin A (1–13) the “DMR agonist activity classification, MOR” value [1] was “Full agonist”.
